The values below are quoted from earlier work in US10449216B2, “Modulating drug effects against metabotropic glutamate receptor with extracellular calcium” (GEORGIA STATE UNIVERSITY RESEARCH FOUNDATION, INC., priority 2013, dated 2019).

Chains of the proteins cited; added tags and fusions are not shown. Residues count along the entry.
UniProt Q13255, 19-1194 limits assumed: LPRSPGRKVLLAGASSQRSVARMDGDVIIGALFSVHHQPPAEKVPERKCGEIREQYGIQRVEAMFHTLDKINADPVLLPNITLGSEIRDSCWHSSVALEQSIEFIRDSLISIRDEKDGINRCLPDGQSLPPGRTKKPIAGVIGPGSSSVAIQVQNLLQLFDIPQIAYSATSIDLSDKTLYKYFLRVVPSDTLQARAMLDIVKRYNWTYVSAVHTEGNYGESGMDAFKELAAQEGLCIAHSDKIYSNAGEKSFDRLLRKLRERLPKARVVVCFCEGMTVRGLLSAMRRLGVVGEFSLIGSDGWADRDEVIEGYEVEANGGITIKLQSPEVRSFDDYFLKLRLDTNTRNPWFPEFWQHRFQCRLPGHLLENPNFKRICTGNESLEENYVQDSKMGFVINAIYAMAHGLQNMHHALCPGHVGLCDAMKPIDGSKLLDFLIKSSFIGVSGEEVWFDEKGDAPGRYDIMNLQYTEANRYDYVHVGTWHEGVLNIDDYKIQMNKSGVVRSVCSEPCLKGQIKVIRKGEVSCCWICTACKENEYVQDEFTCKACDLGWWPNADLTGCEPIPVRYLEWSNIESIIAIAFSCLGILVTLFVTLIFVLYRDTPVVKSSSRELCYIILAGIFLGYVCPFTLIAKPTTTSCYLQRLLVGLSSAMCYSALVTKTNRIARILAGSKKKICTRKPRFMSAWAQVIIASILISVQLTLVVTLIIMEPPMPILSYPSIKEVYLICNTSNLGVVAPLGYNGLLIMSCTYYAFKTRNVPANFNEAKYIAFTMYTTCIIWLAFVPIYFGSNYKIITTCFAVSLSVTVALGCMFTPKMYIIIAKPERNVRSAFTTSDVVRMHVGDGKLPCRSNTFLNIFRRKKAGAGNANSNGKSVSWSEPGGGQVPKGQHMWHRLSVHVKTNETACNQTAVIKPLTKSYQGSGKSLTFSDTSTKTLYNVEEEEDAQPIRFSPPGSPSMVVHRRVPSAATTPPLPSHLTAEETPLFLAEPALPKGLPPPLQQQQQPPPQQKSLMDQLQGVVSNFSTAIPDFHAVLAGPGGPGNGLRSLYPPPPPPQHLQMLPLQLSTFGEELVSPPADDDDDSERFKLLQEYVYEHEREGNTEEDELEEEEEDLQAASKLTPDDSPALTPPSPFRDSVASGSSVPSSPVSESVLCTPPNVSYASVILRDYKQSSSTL
UniProt P23385, 19-1199 limits assumed: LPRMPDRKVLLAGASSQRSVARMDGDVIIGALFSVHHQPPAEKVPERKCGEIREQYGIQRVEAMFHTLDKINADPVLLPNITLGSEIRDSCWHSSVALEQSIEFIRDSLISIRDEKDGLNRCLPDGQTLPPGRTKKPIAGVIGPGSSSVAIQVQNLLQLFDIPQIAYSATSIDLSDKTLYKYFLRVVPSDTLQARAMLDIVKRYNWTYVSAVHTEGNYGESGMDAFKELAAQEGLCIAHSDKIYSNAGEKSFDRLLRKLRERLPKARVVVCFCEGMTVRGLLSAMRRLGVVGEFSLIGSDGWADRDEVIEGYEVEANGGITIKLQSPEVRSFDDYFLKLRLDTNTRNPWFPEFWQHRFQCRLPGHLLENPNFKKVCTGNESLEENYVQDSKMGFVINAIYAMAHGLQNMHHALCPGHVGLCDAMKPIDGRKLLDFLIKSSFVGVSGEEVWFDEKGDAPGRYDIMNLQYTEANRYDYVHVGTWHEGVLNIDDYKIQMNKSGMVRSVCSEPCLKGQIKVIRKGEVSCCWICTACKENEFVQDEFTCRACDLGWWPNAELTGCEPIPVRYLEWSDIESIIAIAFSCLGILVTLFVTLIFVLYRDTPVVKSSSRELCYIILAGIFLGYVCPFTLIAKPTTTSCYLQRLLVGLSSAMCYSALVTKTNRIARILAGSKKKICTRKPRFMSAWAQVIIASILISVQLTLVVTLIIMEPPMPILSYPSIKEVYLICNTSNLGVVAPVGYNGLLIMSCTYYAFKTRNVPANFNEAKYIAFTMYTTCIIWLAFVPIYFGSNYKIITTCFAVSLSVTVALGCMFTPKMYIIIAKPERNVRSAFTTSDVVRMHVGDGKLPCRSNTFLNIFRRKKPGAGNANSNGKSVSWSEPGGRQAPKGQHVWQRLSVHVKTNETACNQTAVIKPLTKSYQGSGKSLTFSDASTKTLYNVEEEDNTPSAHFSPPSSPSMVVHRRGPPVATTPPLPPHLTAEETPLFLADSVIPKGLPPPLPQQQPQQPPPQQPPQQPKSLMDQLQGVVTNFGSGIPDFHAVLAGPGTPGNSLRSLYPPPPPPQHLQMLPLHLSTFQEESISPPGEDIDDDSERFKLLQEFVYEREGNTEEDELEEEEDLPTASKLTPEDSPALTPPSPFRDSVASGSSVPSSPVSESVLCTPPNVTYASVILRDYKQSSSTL
UniProt P31424, 21-1203 limits assumed: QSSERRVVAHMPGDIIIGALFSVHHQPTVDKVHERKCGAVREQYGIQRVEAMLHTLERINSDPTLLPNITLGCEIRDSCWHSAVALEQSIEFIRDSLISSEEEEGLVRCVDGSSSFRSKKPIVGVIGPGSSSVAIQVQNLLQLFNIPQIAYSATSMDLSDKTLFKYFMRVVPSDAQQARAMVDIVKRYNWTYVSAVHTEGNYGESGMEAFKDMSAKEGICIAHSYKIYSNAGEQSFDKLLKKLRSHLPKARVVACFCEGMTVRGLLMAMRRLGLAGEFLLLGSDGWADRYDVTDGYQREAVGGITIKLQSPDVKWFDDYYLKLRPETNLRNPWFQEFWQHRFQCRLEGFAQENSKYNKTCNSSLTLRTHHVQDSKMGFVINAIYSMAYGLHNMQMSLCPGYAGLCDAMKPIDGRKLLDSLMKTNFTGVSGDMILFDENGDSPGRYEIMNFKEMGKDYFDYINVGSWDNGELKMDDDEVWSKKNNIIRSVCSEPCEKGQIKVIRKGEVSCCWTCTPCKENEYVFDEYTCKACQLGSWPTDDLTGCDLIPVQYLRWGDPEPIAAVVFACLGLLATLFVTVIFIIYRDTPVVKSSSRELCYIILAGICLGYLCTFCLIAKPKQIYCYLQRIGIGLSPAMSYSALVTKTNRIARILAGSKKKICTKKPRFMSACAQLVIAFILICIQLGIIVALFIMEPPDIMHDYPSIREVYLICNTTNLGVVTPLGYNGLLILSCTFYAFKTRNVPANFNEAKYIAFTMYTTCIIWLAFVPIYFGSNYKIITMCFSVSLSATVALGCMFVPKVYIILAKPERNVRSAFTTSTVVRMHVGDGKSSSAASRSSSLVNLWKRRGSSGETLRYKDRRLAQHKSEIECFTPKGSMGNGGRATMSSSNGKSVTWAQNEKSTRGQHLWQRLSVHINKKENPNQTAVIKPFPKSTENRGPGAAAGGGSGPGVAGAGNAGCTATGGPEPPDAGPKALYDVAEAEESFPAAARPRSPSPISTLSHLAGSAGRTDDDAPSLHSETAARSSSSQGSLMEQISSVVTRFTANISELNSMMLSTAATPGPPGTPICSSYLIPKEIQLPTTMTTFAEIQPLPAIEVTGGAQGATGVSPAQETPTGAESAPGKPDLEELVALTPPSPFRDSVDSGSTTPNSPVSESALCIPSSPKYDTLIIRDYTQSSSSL
UniProt P41594, 21-1212 limits assumed: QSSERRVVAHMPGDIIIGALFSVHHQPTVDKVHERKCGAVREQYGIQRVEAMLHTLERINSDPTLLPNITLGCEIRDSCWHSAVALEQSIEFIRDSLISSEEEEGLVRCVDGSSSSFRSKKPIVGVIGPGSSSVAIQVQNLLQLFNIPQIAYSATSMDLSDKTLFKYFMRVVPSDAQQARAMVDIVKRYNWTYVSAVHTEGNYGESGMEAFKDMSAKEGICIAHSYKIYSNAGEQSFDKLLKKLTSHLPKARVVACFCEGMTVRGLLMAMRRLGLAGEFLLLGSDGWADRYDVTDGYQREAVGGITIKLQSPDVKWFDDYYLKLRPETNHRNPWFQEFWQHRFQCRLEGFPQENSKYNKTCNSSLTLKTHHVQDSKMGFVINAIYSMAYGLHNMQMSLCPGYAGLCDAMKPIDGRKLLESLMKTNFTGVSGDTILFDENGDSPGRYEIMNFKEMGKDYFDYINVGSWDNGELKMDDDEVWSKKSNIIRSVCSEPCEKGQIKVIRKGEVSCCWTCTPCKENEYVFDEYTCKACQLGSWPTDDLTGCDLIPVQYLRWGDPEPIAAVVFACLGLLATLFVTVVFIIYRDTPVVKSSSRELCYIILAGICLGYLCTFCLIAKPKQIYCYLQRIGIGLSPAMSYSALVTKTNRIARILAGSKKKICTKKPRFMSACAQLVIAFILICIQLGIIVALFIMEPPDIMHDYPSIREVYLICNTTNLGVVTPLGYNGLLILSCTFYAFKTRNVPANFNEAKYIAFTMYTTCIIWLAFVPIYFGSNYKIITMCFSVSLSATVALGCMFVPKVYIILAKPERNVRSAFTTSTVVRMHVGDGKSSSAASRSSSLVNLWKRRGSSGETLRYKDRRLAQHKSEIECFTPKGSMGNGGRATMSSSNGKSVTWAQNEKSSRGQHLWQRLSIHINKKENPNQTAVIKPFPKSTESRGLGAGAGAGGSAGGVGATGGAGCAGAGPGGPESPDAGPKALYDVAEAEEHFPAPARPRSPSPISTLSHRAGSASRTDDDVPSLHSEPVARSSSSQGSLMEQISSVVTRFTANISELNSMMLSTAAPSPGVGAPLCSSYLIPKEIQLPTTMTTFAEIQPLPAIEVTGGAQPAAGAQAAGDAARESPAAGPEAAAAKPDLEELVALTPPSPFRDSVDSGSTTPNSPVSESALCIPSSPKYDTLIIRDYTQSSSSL

The target of data set [1] is mGluR1 (Homo sapiens, UniProt Q13255). As to conditions: mGluR1, Sp. Hs; tested as the radiolabelled form; cited from earlier work.
Data set [2] addresses mGluR1 (Rattus norvegicus, UniProt P23385). The settings on record: mGluR1, Sp. Rn; tested as the radiolabelled form; cited from earlier work.
Data set [3] concerns the target mGluR5 (Rattus norvegicus, UniProt P31424). The settings on record: mGluR5, Sp. Rn; tested as the radiolabelled form; cited from earlier work.
Data set [4] has as its target mGluR5 (Homo sapiens, UniProt P41594). The settings on record: mGluR5, Sp. Hs; tested as the radiolabelled form; cited from earlier work.

Regarding `O=C(Cc1ccccc1)c1ccc2nc3c(cc2c1)CCCO3` [R214127], the “Affinity (pKd)” value at mGluR1 [1] was 9 pKd.
For the compound `CCn1c(C)nc(N2CCc3ccccc3CC2)c(C#N)c1=O` [EM-TBPC], at mGluR1 [2], the “Affinity (pKd)” value is recorded as 8.2 pKd.
For the compound `CN1CC(=O)N=C1NC(=O)Nc1cccc(Cl)c1`, the “Affinity (pKd)” value is recorded as 7.3 pKd at mGluR5 [3] and 7.5 pKd on mGluR5 [4].
